The assay concerns the target T1, BChE from equine serum (Equus caballus, UniProt P81908).
T1 construct: BChE from equine serum (Sigma); purchased Sigma; host or cells: equine serum
In kind it is biochemical. The settings on record: eqBChE 0.22 U/mL, Tris-HCl pH 8.0, 20 min preincubation at 37 °C, butyrylthiocholine iodide 0.5 mM, read at 412 nm. The procedure: Selected hits were obtained from NCI and they were provided as dry powders in variable quantities (5–10 mg). […] Subsequently, they were diluted to the required concentrations with Tris buffer pH 8.0 for the assay. Enzymatic inhibition assays were performed on BChE from equine serum (Sigma), according to the spectrophotometric Ellman's method. The experiment was performed in 48-well plates in a final volume of 100 µL. Each well contained 0.22 U/mL eqBChE dissolved in Tris–HCl buffer, pH 8.0. They were preincubated for 20 min at different compound concentrations at 37 °C. Then 0.5 mM butyrylthiocholine iodide (Sigma) and 0.35 mM 5,5′-dithiobis -2-nitrobenzoico (DTNB; Sigma) were added. Colour development was measured spectrophotometrically at 412 nm using microplate reader (BioTek ELx800) at a rate of one measurement per minute over 15 min period. […] All samples were assayed in at least duplicate measurements. In general, the amount of DMSO was kept below 1% in the assay. IC50 values were determined graphically from inhibition curves using Graph Pad prism version 6, Graph Pad Software, Inc..

By UniProt entry, the sequences of proteins in these tests, tags left out.
UniProt P81908, whole entry: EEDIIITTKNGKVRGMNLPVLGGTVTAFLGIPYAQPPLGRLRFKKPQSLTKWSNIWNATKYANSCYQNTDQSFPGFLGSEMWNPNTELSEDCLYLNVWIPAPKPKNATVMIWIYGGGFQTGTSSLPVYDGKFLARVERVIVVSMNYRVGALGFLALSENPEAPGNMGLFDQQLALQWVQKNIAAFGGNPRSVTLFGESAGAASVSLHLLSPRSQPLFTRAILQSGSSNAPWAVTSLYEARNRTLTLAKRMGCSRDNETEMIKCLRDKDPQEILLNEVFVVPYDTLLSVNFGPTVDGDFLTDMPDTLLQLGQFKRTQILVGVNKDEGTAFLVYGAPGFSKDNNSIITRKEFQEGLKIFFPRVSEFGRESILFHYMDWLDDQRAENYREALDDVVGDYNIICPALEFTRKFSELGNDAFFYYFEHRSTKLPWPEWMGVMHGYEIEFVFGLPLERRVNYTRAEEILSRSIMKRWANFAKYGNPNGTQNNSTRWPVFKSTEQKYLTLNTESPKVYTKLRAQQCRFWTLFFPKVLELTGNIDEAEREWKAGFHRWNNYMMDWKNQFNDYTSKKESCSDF

Usually IC50 stands for the point on the concentration scale where inhibition reaches its midpoint. Low values mean higher potency, high ones lower potency. `CNC(=O)Oc1ccc2c(c1)[C@]1(C)CCN(C)[C@@H]1N2C` [Eserine, reference compound]: the midpoint of inhibition, the IC50, lay at 40 ± 0.1 nM.

For the origin of these results see PMC6711031, “Discovery of new butyrylcholinesterase inhibitors via structure-based virtual screening” (Journal of Enzyme Inhibition and Medicinal Chemistry, 2019).
